Our source for the activation values is PubChem BioAssay AID434982 (The Scripps Research Institute Molecular Screening Center, 2010).

The list shows a part of the results, in another mix than the full data. Activity calls are given as the source filed them. No stated cut-off is given here; in the data, active means activation above about 2.2%; inactive means the rest.

The nature of the assay: activates NOTCH signaling in reporter cells (AID 434982). Particulars: NOTCH signaling luciferase reporter cells, luminescence; at 2.5 µM; active compounds read high.
Take `O=[N+]([O-])C1([N+](=O)[O-])COCOC1`: the activation was inactive: -0.63%.
